substance,measurement,value
Amphotericin B-Calcium-Oxalic Acid Complex [Example 1],solubility in water at pH 2,3.44 g/l
